Patent US10875847B2, “Aminopyrazoles as selective janus kinase inhibitors” (Intervet Inc., priority 2016, dated 2020)

Tested on: Interleukin 6 (IL6)—JAK1/JAK2-STAT4 Pathway
Assay: IL6 CellSensor cell pathway engagement assay (SIE-bla ME-180 cells)
Conditions: Table 3, comparative examples

Question: With `CCS(=O)(=O)N1CC(CC#N)(n2cc(-c3ncnc4[nH]ccc34)cn2)C1` [Baricitinib] as the molecule, how does the EPO/IL-6 read?
Answer: Its EPO/IL-6 is 0.43x.
